From ChEMBL document CHEMBL1921749, “5-Lipoxygenase-activating protein (FLAP) inhibitors. Part 4: development of 3-[3-tert-butylsulfanyl-1-[4-(6-ethoxypyridin-3-yl)benzyl]-5-(5-methylpyridin-2-ylmethoxy)-1H-indol-2-yl]-2,2-dimethylpropionic acid (AM803), a potent, oral, once daily FLAP inhibitor” (J Med Chem, 2011)

The chains behind the UniProt entries cited, without tags or fusion partners. Where a name states a change or a piece, a line headed by the entry shows the natural chain unless it says otherwise.
UniProt P20292: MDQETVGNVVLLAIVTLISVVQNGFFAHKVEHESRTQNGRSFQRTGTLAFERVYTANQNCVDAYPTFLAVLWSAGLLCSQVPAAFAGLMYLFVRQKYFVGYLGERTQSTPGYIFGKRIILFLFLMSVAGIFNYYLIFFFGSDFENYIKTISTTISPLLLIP

Legend:
[1] = biological target: T1, Arachidonate 5-lipoxygenase-activating protein (Homo sapiens, UniProt P20292); experiment: Inhibition of FLAP in human whole blood assessed as inhibition of calcium ionophore A23187-induced LTB4 production preincubated for 15 mins by ELISA
[2] = biological target: T1, Arachidonate 5-lipoxygenase-activating protein; experiment: Displacement of [3H]-3-[5-(pyrid-2-ylmethoxy)-3-tert-butylthio-1-benzylindol-2-yl]-2,2-dimethylpropionic acid from FLAP in human polymorphonuclear cell membranes after 1 hr by scintillation counting
[3] = biological target: T1, Arachidonate 5-lipoxygenase-activating protein; experiment: Inhibition of FLAP in human peripheral leukocytes assessed as inhibition of calcium ionophore A23187-induced LTB4 production after 10 mins by ELISA; assay type: cell-based
[4] = biological target: T1, Arachidonate 5-lipoxygenase-activating protein; experiment: Inhibition of FLAP in human whole blood assessed as inhibition of calcium ionophore A23187-induced LTB4 production preincubated for 5 hrs by ELISA

IC50 [1]: 194 nM | IC50 [2]: 1.5 nM | IC50 [3]: 0.4 nM | IC50 [4]: 75 nM
SMILES: Cc1ccc(COc2ccc3c(c2)c(SC(C)(C)C)c(CC(C)(C)C(=O)O)n3Cc2ccc(-c3ccc(F)cn3)cc2)nc1
